This experiment relates to δ-opioid receptor. The experiment is described as follows: δ-opioid receptor binding, brain homogenate, versus [3H]DT. The arrangement: species or system rat. Particulars: Table 1; ratio of Ki values.

Take “Tyr-Gly-Gly-Phe-Leu [ENK, reference compound]”: the μ/δ is given as 1.69.

The values above are taken from paper PMC4412257, “2′,6′-Dimethylphenylalanine: A Useful Aromatic Amino Acid Surrogate for Tyr or Phe Residue in Opioid Peptides” (International Journal of Medicinal Chemistry, 2012).
